By UniProt entry, the sequences of proteins in these tests, tags left out. Residues count along the entry.
UniProt O60894, 27-148: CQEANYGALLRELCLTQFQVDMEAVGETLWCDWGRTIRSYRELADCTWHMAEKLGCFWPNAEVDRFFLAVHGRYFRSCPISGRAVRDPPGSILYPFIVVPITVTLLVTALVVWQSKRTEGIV
UniProt Q16602, 23-461: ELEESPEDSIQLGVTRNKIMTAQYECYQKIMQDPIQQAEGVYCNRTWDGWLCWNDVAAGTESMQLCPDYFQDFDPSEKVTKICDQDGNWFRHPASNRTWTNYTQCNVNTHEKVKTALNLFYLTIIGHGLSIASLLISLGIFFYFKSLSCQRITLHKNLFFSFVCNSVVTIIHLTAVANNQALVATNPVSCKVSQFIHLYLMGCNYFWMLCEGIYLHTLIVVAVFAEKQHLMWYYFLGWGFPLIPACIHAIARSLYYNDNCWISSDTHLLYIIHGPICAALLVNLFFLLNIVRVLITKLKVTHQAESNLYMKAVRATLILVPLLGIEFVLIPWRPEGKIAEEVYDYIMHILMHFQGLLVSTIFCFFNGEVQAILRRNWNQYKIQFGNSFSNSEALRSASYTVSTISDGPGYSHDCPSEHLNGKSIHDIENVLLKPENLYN

In patent US9133260B2 (priority 2005, dated 2015):

Experiments:
[1] = biological target: T1, GLP-1 receptor (Rattus norvegicus, UniProt P32301); format: binding; settings: read-out: GLP RBA
T1 construct: the receptor source is RINm5F cell membranes; endogenous in cells; host or cells: RINm5F cell membranes
T1 sequence (P32301 22-463): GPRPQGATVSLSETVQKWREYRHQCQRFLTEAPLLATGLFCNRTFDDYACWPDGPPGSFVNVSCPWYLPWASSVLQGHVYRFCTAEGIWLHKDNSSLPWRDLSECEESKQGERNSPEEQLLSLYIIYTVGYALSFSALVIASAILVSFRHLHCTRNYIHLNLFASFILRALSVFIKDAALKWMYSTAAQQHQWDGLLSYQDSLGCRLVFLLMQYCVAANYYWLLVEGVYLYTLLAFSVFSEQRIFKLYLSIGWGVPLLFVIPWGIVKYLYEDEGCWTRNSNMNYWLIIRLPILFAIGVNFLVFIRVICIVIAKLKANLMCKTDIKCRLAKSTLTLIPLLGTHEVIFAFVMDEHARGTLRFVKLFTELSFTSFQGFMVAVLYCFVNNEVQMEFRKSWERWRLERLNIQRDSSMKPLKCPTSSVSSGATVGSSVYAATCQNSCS

[2] = biological target: T2, GIP Receptor (Homo sapiens, UniProt P48546); format: binding
T2 sequence (P48546 22-466): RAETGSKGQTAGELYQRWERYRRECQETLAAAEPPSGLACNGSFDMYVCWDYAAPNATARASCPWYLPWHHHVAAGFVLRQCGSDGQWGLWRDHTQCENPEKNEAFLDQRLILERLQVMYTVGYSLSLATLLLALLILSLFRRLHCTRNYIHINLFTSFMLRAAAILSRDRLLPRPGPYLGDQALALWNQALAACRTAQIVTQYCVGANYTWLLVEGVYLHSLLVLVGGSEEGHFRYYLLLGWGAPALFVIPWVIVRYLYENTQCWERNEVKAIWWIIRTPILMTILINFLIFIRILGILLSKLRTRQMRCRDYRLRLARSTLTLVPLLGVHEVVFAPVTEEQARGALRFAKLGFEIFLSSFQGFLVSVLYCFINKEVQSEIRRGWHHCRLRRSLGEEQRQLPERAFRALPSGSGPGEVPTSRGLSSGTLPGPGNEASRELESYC

[3] = biological target: T3, CGRP receptors (Homo sapiens, UniProt O60894+Q16602); experiment: CGRP receptor binding assay (CGRP RBA), SK-N-MC cell membranes; settings: table of GIP/amylin-sCT hybrids; unit inferred
T3 construct: membranes prepared from SK-N-MC cells, known to express CGRP receptors; endogenous in cells; host or cells: SK-N-MC cell membranes

[4] = biological target: relevant receptors; experiment: Cyclase, table of GIP/amylin-sCT hybrids; format: biochemical; settings: receptor and unit inferred
[5] = biological target: T4, amylin receptors (Rattus norvegicus, UniProt P32214); settings: read-out: AMY RBA; table of GIP/amylin-sCT hybrids; unit inferred
T4 sequence (P32214 25-516): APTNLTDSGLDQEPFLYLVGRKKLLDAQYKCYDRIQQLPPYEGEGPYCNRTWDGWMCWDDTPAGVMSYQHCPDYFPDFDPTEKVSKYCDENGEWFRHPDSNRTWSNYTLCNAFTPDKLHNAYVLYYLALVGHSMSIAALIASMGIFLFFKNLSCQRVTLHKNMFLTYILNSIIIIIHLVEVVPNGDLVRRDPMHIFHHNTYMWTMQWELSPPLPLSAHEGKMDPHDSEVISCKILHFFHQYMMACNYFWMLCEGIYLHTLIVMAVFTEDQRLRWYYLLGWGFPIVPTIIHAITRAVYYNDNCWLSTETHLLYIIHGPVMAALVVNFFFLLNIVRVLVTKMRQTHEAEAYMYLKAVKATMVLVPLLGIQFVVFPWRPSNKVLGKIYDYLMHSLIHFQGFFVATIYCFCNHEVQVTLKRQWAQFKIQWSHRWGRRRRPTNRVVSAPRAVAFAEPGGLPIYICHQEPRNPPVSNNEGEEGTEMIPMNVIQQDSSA
T4 sequence (Q9JJ74 27-148 partner): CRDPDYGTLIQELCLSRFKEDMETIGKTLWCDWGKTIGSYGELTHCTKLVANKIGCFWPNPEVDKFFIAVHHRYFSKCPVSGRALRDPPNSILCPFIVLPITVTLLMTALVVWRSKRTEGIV

[6] = biological target: T2, GIP Receptor; experiment: Cyclase (GIP Receptor activation); format: biochemical; settings: unit inferred
[7] = Protease resistance in RINm5F cell membrane extracts; format: in vitro ADME; settings: 37° C., 6 hr, LC-MS
[8] = Stability in human plasma; format: in vitro ADME

Substance: HAEGTFTSDVSSYLEGQAALEFIAWLVKGR [Compound 4]
- pIC50 [1]: 6.18
- pIC50 ([2]; read-out: GIP RBA): 9.89
- pIC50 [3]: 6.96
- pEC50 [4]: 6.67
- pIC50 [5]: 9.52

Substance: YAEGTFISDYSIAMDKIHQQDFVNWLLAQKPSSGAPPPS [Compound 1]
- pIC50 ([2]; read-out: GIP RBA): 8.42

Substance: YaEGTFISDYSIAMDG(Oct)IHQQDFVNWLLAQKPSSGAPPPS-NH2 [Compound 0601GIP4194]
- pEC50 [6]: 6.03

Substance: YaEGTFISDYSIAMDKIHQQDFVNWLLAQK-bAlabAla-PSSGAPPPS-NH2 [Compound 0601GIP4179]
- pEC50 [6]: 7.25

Substance: YaEGTFISDYSIAMDKIHQQDFVNWLLAQKPKKIRYS-NH2 [Compound 0601GIP4233]
- pIC50 ([2]; list, read-out: GIP Receptor binding activity): 10.00

Substance: YaEGTFISDYSIAMDKIHQQDFVNWLLAQKPSSGAPPPS-NH2 [Compound 0601GIP3794]
- stability against RINm5F cell membrane extracts [7]: more stable
- plasma stability, comparison in words [8]: more stable than exendin-4

pEC50, pIC50: −log10 of the molar value. Read-outs that look alike come from different tables or passages of the source.
